Measurements published in US8404709B2, “Substituted 4-aryl-1,4-dihydro-1,6-naphthyridines and use thereof” (Bayer Intellectual Property GmbH, priority 2007, dated 2013).

By UniProt entry, the sequences of proteins in these tests, tags left out. Residues count along the entry.
UniProt P08235, 734-984 limits assumed: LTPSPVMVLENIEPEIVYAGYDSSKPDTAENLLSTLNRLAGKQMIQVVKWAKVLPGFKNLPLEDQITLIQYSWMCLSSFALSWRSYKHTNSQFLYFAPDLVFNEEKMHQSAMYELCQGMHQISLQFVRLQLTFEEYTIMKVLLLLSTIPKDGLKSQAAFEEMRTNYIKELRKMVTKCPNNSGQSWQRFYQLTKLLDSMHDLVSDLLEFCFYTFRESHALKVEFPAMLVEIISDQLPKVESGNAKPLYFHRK

Target: human mineralocorticoid receptor (MR) (Homo sapiens, UniProt P08235)
Assay: Cellular in vitro assay to determine the inhibitory MR activity (GAL4-MR chimera, luciferase reporter, CHO K1 cells)
Settings: read-out: MR IC50; recombinant CHO K1 cells, GAL4-MR ligand-binding domain chimera, agonist aldosterone, luciferase readout

## CCOc1ncc(C)c2c1C(c1ccc(C#N)cc1OC)C(C#N)=C(C)N2 (centres unmarked) [Example 37, 4-(4-Cyano-2-methoxyphenyl)-5-ethoxy-2,8-dimethyl-1,4-dihydro-1,6-naphthyridine-3-carbonitrile]
  IC50: 25 nM

## CCOc1nc(C)cc2c1C(c1ccc(C#N)cc1OC)C(C#N)=C(C)N2 (centres unmarked) [Example 35, 4-(4-Cyano-2-methoxyphenyl)-5-ethoxy-2,7-dimethyl-1,4-dihydro-1,6-naphthyridine-3-carbonitrile]
  IC50: 55 nM
